Tests used:
[1] = target: T1, levetiracetam binding site (LBS) (Rattus norvegicus, UniProt Q02563); assay: [3H]ucb 30889 binding on crude rat brain membranes (kinetics, saturation, competition)
T1 construct: host or cells: crude rat brain membranes (Noyer et al. 1995; Gillard et al. 2003)
Procedure: This example describes the binding properties of [^3H]ucb 30889, (2S)-2-[4-(3-azidophenyl)-2-oxopyrrolidin-1-yl]butanamide, an analogue of levetiracetam. Binding experiments were conducted on crude rat brain membranes at 4° C. as described in Noyer et al. (Euro. J. Pharmacol. 286: 137-146 (1995)). Incubation time for equilibrium studies was 120 min. For kinetic and competition studies, [^3H]ucb 30889 (30 Ci/mmol) was used at a concentration of 1.3 nM in 0.5 ml of a Tris-HCl (pH 7.4) buffer containing 2 mM Mg^2+. Localization of the LBS in brain substructures was assessed by autoradiography on 25 μm thick slices incubated under similar conditions. Slides were then washed twice for 10 min at 4° C. in 50 mM Tris-HCl (pH 7.4) containing 0.5% BSA, dried and exposed for 3 weeks to [^3H]Hyperfilm at −20° C. Non-specific binding (NSB) was determined by the inclusion of 1 mM LEV during the incubation period.

Chains of the proteins cited; added tags and fusions are not shown.
UniProt Q02563, whole entry: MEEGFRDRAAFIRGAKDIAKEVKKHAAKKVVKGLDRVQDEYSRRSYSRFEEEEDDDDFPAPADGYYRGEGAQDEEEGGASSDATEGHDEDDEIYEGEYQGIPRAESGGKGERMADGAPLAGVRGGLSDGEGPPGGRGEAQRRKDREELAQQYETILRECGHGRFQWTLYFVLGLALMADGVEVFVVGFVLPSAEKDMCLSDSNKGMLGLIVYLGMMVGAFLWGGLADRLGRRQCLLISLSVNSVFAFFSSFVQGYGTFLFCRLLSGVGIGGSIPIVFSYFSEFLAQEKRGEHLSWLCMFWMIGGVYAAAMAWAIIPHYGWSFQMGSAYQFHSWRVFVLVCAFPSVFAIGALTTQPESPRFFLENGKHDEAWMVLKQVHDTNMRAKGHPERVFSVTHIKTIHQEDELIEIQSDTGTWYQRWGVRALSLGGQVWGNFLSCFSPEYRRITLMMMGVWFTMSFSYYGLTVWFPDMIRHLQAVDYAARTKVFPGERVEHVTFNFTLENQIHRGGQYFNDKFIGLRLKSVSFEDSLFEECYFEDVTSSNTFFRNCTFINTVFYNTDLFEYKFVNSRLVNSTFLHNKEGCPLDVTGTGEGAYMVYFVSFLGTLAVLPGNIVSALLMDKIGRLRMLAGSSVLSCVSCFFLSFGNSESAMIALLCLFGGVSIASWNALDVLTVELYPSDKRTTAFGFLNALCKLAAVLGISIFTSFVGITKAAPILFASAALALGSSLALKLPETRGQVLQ

soluble SV2A = target: T2, soluble SV2A (Rattus norvegicus, UniProt Q02563); assay: binding to soluble SV2A (n-dodecyl-β-D-maltoside solubilized rat brain membranes)
T2 construct: the soluble protein maintains its native structural conformation in n-dodecyl-β-D-maltoside; from tissue; host or cells: rat brain membranes, detergent supernatant (100,000 g)
Procedure: The rat brain membranes were diluted in a solubilization buffer (Tris-HCl 20 mM pH 7.4, 0.25 M sucrose, protease inhibitors Complete Roche) containing n-dodecyl-β-D-maltoside 15 mM and incubated for two hours at 4° C. Subsequently, the solution was centrifuged at 4° C. for one hour at 100,000 g. The soluble SV2A was found in the supernatant as detected by western blot using anti-SV2A antibodies (FIG. 21A). The supernatants were incubated with [^3H]ucb 30889 as described. […] In order to detect the specificity of the SV2A binding, the ability of levetiracetam and ucb 30889 to specifically bind to the soluble SV2A was examined. […] Thus, the binding properties of the soluble SV2A are similar to the membrane-bound native form indicative that the soluble protein maintains its native structural conformation in n-dodecyl-β-D-maltoside.

[2] = target: T1, levetiracetam binding site (LBS); conditions: cited from earlier work

In the case of CC[C@@H](C(N)=O)N1CCCC1=O [levetiracetam, (S)-α-ethyl-2-oxo-1-pyrrolidine acetamide], the Bmax [1] is reported as 4718±413 fmol/mg protein and the “affinity for soluble SV2A compared with native membrane” value (soluble SV2A) is reported as “equivalent to that exhibited by ligands to the native membrane”.
For CC[C@@H](C(N)=O)N1CCCC1=O [ucb L060], the “affinity for LBS relative to levetiracetam” value [2] is given as “about 1000 times”.

From patent US7465549B2, “Methods for identifying agents that bind a levetiracetam binding site (LBS) or compete with LEV binding to a LBS of a synaptic vesicle protein 2 (SV2)” (UCB, S.A., priority 2002, dated 2008)
